US20180193330A1, “ALKYLATED TETRAHYDROISOQUINOLINES FOR BINDING TO CENTRAL NERVOUS SYSTEM RECEPTORS” (Florida A&M University, priority 2017, published 2018)
Each block holds one molecule with its values, some of them ahead of it.

The chains behind the UniProt entries cited, without tags or fusion partners. Residues count along the entry.
UniProt P08908, whole entry: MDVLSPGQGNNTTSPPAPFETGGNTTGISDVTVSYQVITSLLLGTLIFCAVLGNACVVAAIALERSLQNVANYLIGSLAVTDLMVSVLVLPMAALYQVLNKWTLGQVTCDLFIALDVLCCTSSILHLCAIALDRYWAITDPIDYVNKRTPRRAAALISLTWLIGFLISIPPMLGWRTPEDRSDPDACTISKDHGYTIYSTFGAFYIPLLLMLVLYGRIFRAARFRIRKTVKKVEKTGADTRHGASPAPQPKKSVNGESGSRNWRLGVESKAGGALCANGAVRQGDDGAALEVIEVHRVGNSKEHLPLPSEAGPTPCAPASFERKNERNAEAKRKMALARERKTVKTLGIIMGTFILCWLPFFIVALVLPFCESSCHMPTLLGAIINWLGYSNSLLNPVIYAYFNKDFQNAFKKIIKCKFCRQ
UniProt P14416, whole entry: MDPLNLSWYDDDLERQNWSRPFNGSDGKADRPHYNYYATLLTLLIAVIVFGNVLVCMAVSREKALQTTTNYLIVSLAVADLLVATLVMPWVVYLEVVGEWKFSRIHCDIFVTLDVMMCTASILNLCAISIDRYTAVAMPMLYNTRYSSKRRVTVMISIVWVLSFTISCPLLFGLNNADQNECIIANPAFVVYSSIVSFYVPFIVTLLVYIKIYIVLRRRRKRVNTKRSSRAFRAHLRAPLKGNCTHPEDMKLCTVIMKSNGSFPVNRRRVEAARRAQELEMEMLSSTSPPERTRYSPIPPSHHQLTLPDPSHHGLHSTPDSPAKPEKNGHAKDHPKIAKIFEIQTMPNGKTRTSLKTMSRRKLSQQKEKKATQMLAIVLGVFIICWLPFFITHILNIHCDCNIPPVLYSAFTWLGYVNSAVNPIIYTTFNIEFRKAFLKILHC
UniProt P28223, whole entry: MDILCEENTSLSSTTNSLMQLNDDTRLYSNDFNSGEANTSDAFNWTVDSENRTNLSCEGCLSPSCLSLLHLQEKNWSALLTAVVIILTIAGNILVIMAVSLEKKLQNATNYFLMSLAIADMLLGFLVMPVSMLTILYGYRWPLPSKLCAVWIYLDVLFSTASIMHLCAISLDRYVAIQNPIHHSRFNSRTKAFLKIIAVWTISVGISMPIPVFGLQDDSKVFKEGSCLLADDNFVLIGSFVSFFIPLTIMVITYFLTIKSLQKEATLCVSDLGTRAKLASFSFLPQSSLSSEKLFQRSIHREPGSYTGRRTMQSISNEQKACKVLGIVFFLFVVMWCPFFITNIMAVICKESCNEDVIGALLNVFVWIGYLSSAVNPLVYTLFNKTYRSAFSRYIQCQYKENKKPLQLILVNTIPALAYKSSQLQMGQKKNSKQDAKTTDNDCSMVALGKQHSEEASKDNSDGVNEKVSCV
UniProt P28335, 33-458: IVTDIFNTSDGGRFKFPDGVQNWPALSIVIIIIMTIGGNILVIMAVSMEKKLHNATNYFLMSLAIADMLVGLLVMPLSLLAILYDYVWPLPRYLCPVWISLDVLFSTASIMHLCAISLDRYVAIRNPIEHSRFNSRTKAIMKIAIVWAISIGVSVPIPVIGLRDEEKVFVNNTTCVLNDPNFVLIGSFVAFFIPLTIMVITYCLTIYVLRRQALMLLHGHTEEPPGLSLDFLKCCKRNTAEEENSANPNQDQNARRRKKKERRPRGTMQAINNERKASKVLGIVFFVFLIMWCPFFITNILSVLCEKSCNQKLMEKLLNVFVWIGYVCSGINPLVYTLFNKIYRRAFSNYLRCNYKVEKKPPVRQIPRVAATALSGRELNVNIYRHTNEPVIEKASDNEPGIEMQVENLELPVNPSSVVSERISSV

Columns and labels:
5-HT1A receptor = 5-HT1A receptor (Homo sapiens, UniProt P08908); assay: Receptor binding affinity at 5-HT1A (NIMH-PDSP radioligand binding)
D2 receptor = D2 receptor (Homo sapiens, UniProt P14416); assay: Receptor binding affinity at dopamine D2 (NIMH-PDSP radioligand binding)
5-HT2A receptor = 5-HT2A receptor (Homo sapiens, UniProt P28223); assay: Receptor binding affinity at 5-HT2A (NIMH-PDSP radioligand binding); conditions: Table 5, Group 3 analogs; Ki without SEM within 20% of mean
5-HT2C receptor = 5-HT2C receptor (Homo sapiens, UniProt P28335); assay: Receptor binding affinity at 5-HT2C (NIMH-PDSP radioligand binding); conditions: Table 5, Group 3 analogs; Ki without SEM within 20% of mean

Structure (SMILES): Cl.O=C(CCCN1CCCc2ccccc2C1)c1ccc(Cl)cc1 [Compound 3e, 1-(4-Chlorophenyl)-4-(4,5-dihydro-1H-benzo[c]azepin-2(3H)-yl)butan-1-one hydrochloride]
Ki (5-HT1A receptor; read-out: Ki 5-HT1A, Table 5, Group 3 analogs, Ki without SEM within 20% of mean): 1710 nM

Structure (SMILES): Cl.O=C(CCCN1CCc2ccccc2CC1)c1ccc(Cl)cc1 [Compound 3f, 1-(4-Chlorophenyl)-4-(4,5-dihydro-1H-benzo[d]azepin-3(2H)-yl)butan-1-one hydrochloride]
Ki (D2 receptor; Table 5, Group 3 analogs, Ki without SEM within 20% of mean): 1170 nM

pKi ± SEM 5-HT1A (5-HT1A receptor; Table 4, Group 2 analogs): (5.96 ± 0.08)
Structure (SMILES): C1=C(CCN2CCc3ccccc3C2)Cc2ccccc21 [Compound 2a, 2-(2-(1H-inden-2-yl)ethyl)-1,2,3,4-tetrahydroisoquinoline]

Structure (SMILES): O=C1c2ccc(F)cc2CC1CCN1CCc2ccccc2C1 (stereo not drawn) [Compound 3h, 2-(2-(3,4-dihydroisoquinolin-2(1H)-yl)ethyl)-5-fluoro-2,3-dihydro-1H-inden-1-one]
Ki (5-HT2A receptor): 1200 nM

Structure (SMILES): O=C1Cc2cc(C(=O)CCCN3CCc4ccccc4C3)ccc2N1 [Compound 3g, 5-(4-(3,4-dihydroisoquinolin-2(1H)-yl)butanoyl)indolin-2-one]
Ki (5-HT2C receptor): 4230 nM

Structure (SMILES): C1=C(CCN2CCc3ccccc3C2)CCc2ccccc21 [Compound 2b, 2-(2-(3,4-dihydronaphthalen-2-yl)ethyl)-1,2,3,4-tetrahydroisoquinoline]
pKi ± SEM D2 (D2 receptor; Table 4, Group 2 analogs): (5.25 ± 0.06)
